# Tested on: mice
# Assay: Comparison of analgesic effects and synergistic activity between sophoridine and morphine (hot plate method)
# Conditions: morphine hydrochloride 10 mg/kg orally
compound,measurement,setting,value
"CN1CC[C@]23c4c5ccc(O)c4O[C@H]2[C@@H](O)C=C[C@H]3[C@H]1C5.Cl [Morphine, morphine hydrochloride]",Pain thresholds after admin. (seconds) 15 min.,15 min.,35.1 ± 15.5 s
same,Pain thresholds after admin. (seconds) 30 min.,30 min.,44.8 ± 14.6 s
same,Pain thresholds after admin. (seconds) 60 min.,60 min.,32.4 ± 16.2 s
same,Pain thresholds before admin.,before admin. (baseline),19.7 ± 4.4 s

# Reference: patent publication US20060251751A1, “Sophoridine and its use as an analgesic” (SHANGHAI FANGDA PHARMACEUTICALS, LTD., priority 2001, published 2006)
